Experimental data: PMC12678819, “Targeting bacterial kinases as a strategy to counteract antibiotic resistance” (2025)
“And” between values parts separate entries of the source, which are not always exact repeats. Equal values may be shown once.

Amino acid sequences for entries named in this document (tags omitted). A change or cut given only in a name is not applied to a line headed by its entry. Residues count along the entry.
UniProt Q8TF76, 484-798 limits assumed: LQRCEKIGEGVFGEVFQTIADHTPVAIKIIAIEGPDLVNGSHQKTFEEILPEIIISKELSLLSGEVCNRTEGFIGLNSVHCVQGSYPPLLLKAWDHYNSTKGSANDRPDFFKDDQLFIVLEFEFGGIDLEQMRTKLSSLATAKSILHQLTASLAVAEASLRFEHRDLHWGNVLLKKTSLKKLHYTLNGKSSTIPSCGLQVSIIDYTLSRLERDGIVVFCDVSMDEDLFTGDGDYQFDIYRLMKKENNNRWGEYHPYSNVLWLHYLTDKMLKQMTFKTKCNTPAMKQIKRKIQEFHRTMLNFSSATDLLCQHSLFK
UniProt Q2M2I8, 46-315 limits assumed: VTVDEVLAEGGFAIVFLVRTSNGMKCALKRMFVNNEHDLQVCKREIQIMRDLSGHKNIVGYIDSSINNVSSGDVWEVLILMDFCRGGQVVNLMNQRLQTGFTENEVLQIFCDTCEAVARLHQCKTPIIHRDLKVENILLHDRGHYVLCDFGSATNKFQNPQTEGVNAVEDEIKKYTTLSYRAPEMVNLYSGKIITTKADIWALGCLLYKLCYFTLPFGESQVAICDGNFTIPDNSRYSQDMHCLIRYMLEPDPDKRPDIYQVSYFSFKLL
UniProt P11309, whole entry, looked up: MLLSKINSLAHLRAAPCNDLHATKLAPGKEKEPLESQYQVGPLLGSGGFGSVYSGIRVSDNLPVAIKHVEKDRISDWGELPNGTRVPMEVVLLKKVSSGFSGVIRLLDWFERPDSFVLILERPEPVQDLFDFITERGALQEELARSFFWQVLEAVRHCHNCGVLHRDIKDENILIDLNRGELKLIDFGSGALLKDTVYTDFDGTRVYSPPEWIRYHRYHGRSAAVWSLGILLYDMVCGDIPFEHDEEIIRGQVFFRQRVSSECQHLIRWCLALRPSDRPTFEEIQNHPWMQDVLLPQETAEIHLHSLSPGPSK
UniProt P28482, 25-313 limits assumed: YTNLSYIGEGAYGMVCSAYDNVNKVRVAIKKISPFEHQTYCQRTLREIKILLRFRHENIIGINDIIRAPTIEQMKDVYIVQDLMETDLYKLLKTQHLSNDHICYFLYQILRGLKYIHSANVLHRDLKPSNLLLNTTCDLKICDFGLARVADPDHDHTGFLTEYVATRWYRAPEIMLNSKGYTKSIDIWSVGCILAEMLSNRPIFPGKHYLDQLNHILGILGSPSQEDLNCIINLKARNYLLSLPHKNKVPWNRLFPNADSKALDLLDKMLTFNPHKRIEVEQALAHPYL
UniProt P51813, 417-675 limits assumed: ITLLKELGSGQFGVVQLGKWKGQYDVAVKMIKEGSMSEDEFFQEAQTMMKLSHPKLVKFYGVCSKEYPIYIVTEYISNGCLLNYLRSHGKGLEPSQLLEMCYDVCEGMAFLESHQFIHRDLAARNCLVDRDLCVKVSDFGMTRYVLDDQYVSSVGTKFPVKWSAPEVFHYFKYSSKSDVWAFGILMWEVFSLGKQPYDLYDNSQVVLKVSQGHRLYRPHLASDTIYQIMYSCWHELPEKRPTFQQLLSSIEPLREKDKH
UniProt O14976, 14-351 limits assumed: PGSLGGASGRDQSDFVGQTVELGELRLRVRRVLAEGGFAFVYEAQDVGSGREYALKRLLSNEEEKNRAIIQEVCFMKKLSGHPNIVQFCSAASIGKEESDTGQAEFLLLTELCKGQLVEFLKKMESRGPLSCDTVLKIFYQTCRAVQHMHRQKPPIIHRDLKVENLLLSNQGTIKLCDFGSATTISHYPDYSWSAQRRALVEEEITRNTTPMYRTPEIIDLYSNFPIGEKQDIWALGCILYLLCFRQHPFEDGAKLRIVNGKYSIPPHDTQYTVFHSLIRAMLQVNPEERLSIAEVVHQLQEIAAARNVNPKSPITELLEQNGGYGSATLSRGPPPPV
UniProt O14733, 120-380 limits assumed: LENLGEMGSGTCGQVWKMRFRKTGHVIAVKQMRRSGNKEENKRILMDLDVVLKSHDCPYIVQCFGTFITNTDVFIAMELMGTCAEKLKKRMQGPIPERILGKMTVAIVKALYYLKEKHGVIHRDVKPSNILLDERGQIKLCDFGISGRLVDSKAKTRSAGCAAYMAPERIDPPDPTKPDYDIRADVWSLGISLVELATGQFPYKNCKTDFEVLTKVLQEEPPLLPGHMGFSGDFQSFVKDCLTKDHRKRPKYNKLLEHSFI
UniProt Q9UKI8, 456-734 limits assumed: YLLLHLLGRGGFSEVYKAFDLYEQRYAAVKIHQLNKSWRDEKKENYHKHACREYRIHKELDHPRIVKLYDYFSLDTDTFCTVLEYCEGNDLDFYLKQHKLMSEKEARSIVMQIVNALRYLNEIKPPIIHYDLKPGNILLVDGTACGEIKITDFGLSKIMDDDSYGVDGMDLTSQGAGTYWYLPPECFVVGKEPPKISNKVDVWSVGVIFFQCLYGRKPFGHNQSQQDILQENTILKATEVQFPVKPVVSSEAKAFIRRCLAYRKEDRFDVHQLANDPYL
UniProt P21802, 458-768 limits assumed: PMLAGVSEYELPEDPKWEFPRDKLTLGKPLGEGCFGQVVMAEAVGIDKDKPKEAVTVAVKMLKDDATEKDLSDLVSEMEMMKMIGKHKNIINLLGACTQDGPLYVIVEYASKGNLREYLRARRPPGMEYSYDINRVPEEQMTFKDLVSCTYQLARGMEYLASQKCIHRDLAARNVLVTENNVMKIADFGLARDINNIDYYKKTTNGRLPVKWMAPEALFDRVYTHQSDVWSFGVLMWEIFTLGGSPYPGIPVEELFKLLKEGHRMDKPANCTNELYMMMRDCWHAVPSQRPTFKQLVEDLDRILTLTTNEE
UniProt Q9Y6E0, 36-286 limits assumed: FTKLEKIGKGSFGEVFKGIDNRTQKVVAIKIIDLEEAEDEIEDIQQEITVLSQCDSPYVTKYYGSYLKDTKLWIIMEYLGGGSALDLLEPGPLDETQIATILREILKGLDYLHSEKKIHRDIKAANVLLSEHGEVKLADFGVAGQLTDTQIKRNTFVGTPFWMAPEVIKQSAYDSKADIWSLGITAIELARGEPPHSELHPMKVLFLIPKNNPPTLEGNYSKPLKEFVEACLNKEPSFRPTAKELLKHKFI
UniProt P45985, 102-367 limits assumed: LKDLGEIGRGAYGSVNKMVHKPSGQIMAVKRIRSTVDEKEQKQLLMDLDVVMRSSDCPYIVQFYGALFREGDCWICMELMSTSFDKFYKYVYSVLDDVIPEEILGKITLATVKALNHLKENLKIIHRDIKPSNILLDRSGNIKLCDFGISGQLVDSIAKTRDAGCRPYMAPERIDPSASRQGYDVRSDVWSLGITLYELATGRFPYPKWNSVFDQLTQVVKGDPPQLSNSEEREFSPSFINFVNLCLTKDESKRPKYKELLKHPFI
UniProt P21675, whole entry, looked up: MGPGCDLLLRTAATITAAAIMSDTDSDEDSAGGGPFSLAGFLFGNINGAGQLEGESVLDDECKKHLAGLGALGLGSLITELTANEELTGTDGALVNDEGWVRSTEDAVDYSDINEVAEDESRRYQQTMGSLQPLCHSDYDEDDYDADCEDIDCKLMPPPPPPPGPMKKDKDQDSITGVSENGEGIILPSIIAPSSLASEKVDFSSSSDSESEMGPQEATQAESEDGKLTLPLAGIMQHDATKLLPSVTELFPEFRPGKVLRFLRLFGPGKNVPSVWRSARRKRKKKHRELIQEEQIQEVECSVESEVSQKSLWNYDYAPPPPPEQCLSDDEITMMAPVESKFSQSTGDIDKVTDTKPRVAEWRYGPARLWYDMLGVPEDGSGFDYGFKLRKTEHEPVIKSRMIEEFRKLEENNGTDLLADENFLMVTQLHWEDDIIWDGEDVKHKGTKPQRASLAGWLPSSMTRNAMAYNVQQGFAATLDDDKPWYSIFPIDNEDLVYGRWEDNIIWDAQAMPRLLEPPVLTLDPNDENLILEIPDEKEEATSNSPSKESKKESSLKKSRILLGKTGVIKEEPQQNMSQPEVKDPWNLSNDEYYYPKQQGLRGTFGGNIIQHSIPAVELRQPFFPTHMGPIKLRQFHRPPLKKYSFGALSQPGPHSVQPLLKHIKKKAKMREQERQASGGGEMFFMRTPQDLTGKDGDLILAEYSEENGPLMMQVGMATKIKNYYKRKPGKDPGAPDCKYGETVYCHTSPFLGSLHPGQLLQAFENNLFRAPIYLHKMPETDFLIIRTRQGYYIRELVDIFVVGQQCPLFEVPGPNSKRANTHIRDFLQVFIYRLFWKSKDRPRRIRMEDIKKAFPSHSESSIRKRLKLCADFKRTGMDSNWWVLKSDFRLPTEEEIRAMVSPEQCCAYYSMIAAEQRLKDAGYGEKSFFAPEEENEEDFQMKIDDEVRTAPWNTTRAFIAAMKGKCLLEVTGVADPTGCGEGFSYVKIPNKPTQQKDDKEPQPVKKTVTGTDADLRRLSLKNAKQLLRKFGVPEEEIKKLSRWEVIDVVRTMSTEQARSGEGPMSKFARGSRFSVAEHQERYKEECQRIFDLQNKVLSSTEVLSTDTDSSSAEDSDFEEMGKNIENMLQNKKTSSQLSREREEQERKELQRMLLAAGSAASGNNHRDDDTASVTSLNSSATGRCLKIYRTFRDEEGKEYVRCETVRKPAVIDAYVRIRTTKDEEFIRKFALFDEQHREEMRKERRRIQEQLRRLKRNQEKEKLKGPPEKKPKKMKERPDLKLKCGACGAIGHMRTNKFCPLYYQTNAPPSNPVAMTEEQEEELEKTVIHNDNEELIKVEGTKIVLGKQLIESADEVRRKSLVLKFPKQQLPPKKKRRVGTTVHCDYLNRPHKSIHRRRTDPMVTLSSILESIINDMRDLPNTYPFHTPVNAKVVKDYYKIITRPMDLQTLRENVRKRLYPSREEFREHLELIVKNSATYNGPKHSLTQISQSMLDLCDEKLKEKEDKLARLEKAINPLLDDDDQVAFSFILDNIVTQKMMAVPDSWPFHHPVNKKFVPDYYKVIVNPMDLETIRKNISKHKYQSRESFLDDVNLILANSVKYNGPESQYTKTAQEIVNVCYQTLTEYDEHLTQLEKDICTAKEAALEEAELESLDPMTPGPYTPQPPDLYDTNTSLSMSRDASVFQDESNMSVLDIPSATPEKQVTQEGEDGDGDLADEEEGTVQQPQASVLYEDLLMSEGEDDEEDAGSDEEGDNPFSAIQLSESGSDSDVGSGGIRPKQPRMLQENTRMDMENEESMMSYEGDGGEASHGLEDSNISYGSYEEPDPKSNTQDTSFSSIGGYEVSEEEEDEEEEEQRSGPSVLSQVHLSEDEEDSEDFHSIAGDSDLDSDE
UniProt Q13188, 16-313 limits assumed: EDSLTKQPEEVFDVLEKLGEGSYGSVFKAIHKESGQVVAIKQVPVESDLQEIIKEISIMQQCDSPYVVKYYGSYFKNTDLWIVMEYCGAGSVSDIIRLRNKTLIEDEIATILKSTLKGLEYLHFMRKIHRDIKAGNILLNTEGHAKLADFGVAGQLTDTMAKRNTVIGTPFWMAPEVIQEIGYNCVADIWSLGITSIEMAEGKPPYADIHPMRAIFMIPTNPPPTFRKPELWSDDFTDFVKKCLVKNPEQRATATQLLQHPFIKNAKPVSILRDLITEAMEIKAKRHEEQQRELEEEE
UniProt P52564, 53-314 limits assumed: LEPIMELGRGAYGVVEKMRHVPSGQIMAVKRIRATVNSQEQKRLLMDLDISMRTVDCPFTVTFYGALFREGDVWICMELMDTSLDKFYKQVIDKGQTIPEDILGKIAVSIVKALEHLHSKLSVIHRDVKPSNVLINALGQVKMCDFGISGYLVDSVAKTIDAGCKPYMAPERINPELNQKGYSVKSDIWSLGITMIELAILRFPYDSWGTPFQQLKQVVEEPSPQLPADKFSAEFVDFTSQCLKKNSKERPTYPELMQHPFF
UniProt P19784: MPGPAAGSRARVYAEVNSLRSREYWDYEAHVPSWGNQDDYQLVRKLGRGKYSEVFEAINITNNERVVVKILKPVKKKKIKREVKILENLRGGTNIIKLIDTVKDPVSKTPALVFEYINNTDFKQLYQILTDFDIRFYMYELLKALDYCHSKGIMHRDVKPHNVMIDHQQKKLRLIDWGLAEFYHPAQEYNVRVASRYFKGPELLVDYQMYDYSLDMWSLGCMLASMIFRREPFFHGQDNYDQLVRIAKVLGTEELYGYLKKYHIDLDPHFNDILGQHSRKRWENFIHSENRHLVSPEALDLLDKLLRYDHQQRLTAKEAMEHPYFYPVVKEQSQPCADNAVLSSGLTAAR
UniProt Q8TDX7, 34-299 limits assumed: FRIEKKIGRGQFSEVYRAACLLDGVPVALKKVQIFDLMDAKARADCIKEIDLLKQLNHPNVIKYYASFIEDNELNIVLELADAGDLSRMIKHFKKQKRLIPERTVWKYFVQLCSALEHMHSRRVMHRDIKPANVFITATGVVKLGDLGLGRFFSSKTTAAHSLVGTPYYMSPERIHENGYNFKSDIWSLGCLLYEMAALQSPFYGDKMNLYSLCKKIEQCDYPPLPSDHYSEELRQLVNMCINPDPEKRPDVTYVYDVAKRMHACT
UniProt P53779, 39-402 limits assumed: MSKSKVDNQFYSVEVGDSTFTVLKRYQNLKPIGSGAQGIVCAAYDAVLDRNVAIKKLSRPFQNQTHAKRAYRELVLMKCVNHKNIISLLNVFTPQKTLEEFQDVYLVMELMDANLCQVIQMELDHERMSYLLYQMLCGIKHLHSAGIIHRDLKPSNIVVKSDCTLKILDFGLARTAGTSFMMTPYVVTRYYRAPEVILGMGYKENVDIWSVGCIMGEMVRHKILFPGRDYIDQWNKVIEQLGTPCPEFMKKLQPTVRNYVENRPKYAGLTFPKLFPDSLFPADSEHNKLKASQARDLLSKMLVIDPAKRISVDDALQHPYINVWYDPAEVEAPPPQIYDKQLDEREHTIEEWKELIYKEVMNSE

Assays:
[1] = Plasma protein binding, mouse; settings: for PPB mouse, single replicate: maus, raw data of Table 3; for PPB mouse (%): mean
[2] = Metabolic stability assay, mouse microsomes
[3] = Metabolic stability assay, human microsomes
[4] = Plasma protein binding, human; settings: for PPB human (%): mean; for PPB human, single replicate: raw data of Table 3
[5] = Plasma stability assay, human; settings: 1 μg∙mL-1
Haspin = Haspin (Homo sapiens, UniProt Q8TF76); assay: DSF kinase panel; settings: 10 μM
AAK1 = AAK1 (Homo sapiens, UniProt Q2M2I8); assay: DSF kinase panel; settings: 10 μM
PIM1 = PIM1 (Homo sapiens, UniProt P11309); assay: DSF kinase panel; settings: 10 μM
Erk2 = Erk2 (Homo sapiens, UniProt P28482); assay: DSF kinase panel; settings: 10 μM
BMX = BMX (Homo sapiens, UniProt P51813); assay: DSF kinase panel; settings: 10 μM
GAK = GAK (Homo sapiens, UniProt O14976); assay: DSF kinase panel; settings: 10 μM
MAP2K7 = MAP2K7 (Homo sapiens, UniProt O14733); assay: DSF kinase panel; settings: 10 μM
TLK1 = TLK1 (Homo sapiens, UniProt Q9UKI8); assay: DSF kinase panel; settings: 10 μM
FGFR2 = FGFR2 (Homo sapiens, UniProt P21802); assay: DSF kinase panel; settings: 10 μM
MST3 = MST3 (Homo sapiens, UniProt Q9Y6E0); assay: DSF kinase panel; settings: 10 μM
MEK4 = MEK4 (Homo sapiens, UniProt P45985); assay: DSF kinase panel; settings: 10 μM
TAF1 = TAF1 (Homo sapiens, UniProt P21675); assay: DSF kinase panel; settings: 10 μM
MST2 = MST2 (Homo sapiens, UniProt Q13188); assay: DSF kinase panel; settings: 10 μM
BRD4 = BRD4 (Homo sapiens, UniProt O60885); assay: DSF kinase panel; settings: 10 μM
MAP2K6 = MAP2K6 (Homo sapiens, UniProt P52564); assay: DSF kinase panel; settings: 10 μM
CK2a2 = CK2a2 (Homo sapiens, UniProt P19784); assay: DSF kinase panel; settings: 10 μM
NEK7 = NEK7 (Homo sapiens, UniProt Q8TDX7); assay: DSF kinase panel; settings: 10 μM
JNK3 = JNK3 (Homo sapiens, UniProt P53779); assay: DSF kinase panel; settings: 10 μM

Structure (SMILES) | PPB mouse, single replicate [1] | PPB mouse (%) [1] | ΔTm Haspin (Haspin) | ΔTm AAK1 (AAK1) | ΔTm PIM1 (PIM1) | ΔTm Erk2 (Erk2) | ΔTm BMX (BMX) | ΔTm GAK (GAK) | ΔTm MAP2K7 (MAP2K7) | ΔTm TLK1 (TLK1) | ΔTm FGFR2 (FGFR2) | ΔTm MST3 (MST3) | ΔTm MEK4 (MEK4) | ΔTm TAF1 (TAF1) | ΔTm MST2 (MST2) | ΔTm BRD4 (BRD4) | ΔTm MAP2K6 (MAP2K6) | ΔTm CK2a2 (CK2a2) | ΔTm NEK7 (NEK7) | ΔTm JNK3 (JNK3) | other results
OCCCn1cc(-c2c(Cl)cnc3[nH]ccc23)nn1 | 60.6% and 68.8% and 56.7% | 62.0 ± 6.2% | 2.7 °C | 6.0 °C | 0.9 °C | 0.7 °C | 0.4 °C | 2.3 °C | -0.3 °C | -0.9 °C | -0.2 °C | -0.9 °C | 4.3 °C | -0.2 °C | 2.1 °C | 1.7 °C | 3.7 °C | 1.8 °C | -0.3 °C | 1.4 °C | t1/2 mouse microsomes [2]: >1 h; t1/2 human microsomes [3]: >1 h; PPB human (%) [4]: 61.0 ± 10.8%; PPB human, single replicate [4]: 49.0% and 63.7% and 70.2%; t1/2 human plasma [5]: >4 h
C[C@H](CO)Cn1cc(-c2c(Cl)cnc3[nH]ccc23)nn1 | 4.7% and 20.9% and 7.9% | 11.2 ± 8.6% | 1.1 °C | 5.8 °C | 1.0 °C | 0.9 °C | 0.5 °C | 3.4 °C | -0.6 °C | -1.1 °C | -0.1 °C | -1.5 °C | 4.7 °C | 2.3 °C | 2.5 °C | 1.5 °C | 4.1 °C | 2.4 °C | -0.5 °C | 1.7 °C | t1/2 mouse microsomes [2]: >1 h; t1/2 human microsomes [3]: >1 h; PPB human (%) [4]: 26.4 ± 11.1%; PPB human, single replicate [4]: 31.7% and 13.6% and 33.9%; t1/2 human plasma [5]: > 4 h
C[C@@H](CO)Cn1cc(-c2c(Cl)cnc3[nH]ccc23)nn1 | 23.5% and 3.4% and 7.6% | 11.5 ± 10.6% | 2.3 °C | 5.4 °C | 1.2 °C | 0.8 °C | 0.5 °C | 3.1 °C | 0.0 °C | -0.5 °C | -0.2 °C | -1.0 °C | 4.7 °C | 0.7 °C | 2.3 °C | 1.6 °C | 4.1 °C | 2.5 °C | -0.3 °C | 1.8 °C | t1/2 mouse microsomes [2]: >1 h; t1/2 human microsomes [3]: >1 h; PPB human (%) [4]: 22.0 ± 14.6%; t1/2 human plasma [5]: > 4 h
OC[C@H](O)Cn1cc(-c2c(Cl)cnc3[nH]ccc23)nn1 | – | – | 3.2 °C | 5.2 °C | 0.8 °C | 0.6 °C | 0.2 °C | 2.3 °C | -0.7 °C | -1.2 °C | -0.2 °C | -1.5 °C | 4.4 °C | 0.0 °C | 3.0 °C | 1.4 °C | 3.6 °C | 1.6 °C | -0.5 °C | 1.7 °C | –
C[C@H](O)Cn1cc(-c2c(Cl)cnc3[nH]ccc23)nn1 | – | – | 3.2 °C | 5.1 °C | 0.7 °C | 0.6 °C | 0.1 °C | 3.1 °C | 0.0 °C | -0.4 °C | -0.1 °C | -1.0 °C | 4.5 °C | -0.8 °C | 2.7 °C | 1.7 °C | 3.6 °C | 1.5 °C | -0.6 °C | 1.9 °C | –
C[C@@H](O)Cn1cc(-c2c(Cl)cnc3[nH]ccc23)nn1 | – | – | 2.7 °C | 4.8 °C | 0.6 °C | 0.5 °C | 0.0 °C | 2.6 °C | -0.6 °C | -1.1 °C | -0.1 °C | -1.6 °C | 4.5 °C | – | 2.3 °C | 0.8 °C | 3.8 °C | 1.7 °C | -1.2 °C | 2.1 °C | –
